Data taken from US20220387407A1 (priority 2021, published 2022).

Key:
[1] = test system: isoflurane-anesthetized rats
conscious rats = assay: Analgesia assessment by tail-flick withdrawal assay in conscious rats; type: in vivo, Sprague-Dawley rats; details: fentanyl 25 μg/kg IV
freely-moving rats = assay: Ventilatory recordings (whole-body plethysmography) in freely-moving rats, fentanyl-induced respiratory depression; details: L-NACme 500 mol/kg, 88.61 mg/kg IV, fentanyl 25 μg/kg IV after 10 min; FIG. 11

SMILES	fentanyl-induced change in MV after Tempol pretreatment ([1]; Tempol 100 mg/kg IV, then fentanyl 5 μg/kg IV)	peak decreases in cardiorespiratory parameters elicited by fentanyl, effect of Tempol ([1]; Tempol 25, 50 or 100 mg/kg IV, fentanyl 5 μg/kg IV, FIG. 6)	total fentanyl-induced decreases in Freq, TV and MV, effect of Tempol ([1]; Tempol 25, 50 or 100 mg/kg IV, fentanyl 5 μg/kg IV, FIG. 7 bottom panel)	total fentanyl-induced decreases in MAP, DBP and SBP (but not HR), effect of Tempol ([1]; Tempol 25, 50 or 100 mg/kg IV, fentanyl 5 μg/kg IV, FIG. 8 bottom panel)	fentanyl-induced decreases in ventilatory parameters after Tempol pretreatment ([1]; Tempol 25, 50 or 100 mg/kg IV, then fentanyl 5 μg/kg IV after 20 min, as the dose of Tempol was increased)	fentanyl-induced decreases in MAP, DBP and SBP after Tempol pretreatment ([1]; Tempol 25, 50 or 100 mg/kg IV, then fentanyl 5 μg/kg IV, particularly reduced after 50 and 100 mg/kg)	cardiorespiratory depression elicited by an infusion of fentanyl, effect of a bolus injection of Tempol ([1]; isoflurane-anesthetized rats, Tempol bolus during fentanyl infusion)	loss of analgesic effect of fentanyl at 4 PM, effect of Tempol given in the 10 AM study (conscious rats; Tempol 100 mg/kg IV at 10 AM, FIG. 10)	analgesic effects (increases in tail-flick latency) of fentanyl, effect of Tempol (conscious rats; Tempol 100 mg/kg IV, study commenced at 10 AM, FIG. 9)	ventilatory depressant effects (Freq, TV, MV) of fentanyl, effect of L-NACme pretreatment (freely-moving rats)	development of tolerance to the analgesic responses elicited by the second injection of fentanyl at 4 PM, effect of L-NACme (conscious rats; L-NACme 500 mol/kg IV at 10 AM, FIG. 12)
CC1(C)CC(O)CC(C)(C)N1[O] [Tempol, 4-hydroxy-2,2,6,6-tetramethylpiperidine-N-oxyl]	returned to the elevated levels seen prior to injection of fentanyl	markedly diminishes	substantially blunted	substantially blunted	progressively and substantially smaller decreases	markedly diminished	immediately reversed	did not affect	not affected		
COC(=O)[C@H](CS)NC(C)=O										minimal effects	substantially blunted
